AlphaSeq binding of Ab-14 light chain variants to a spike HR2 peptide

All variants were tested on one target, the spike HR2 peptide PDVDLGDISGINAS (SARS-CoV-2).

Parent scFv Ab-14: VH joined to VL by three GGGGS repeats. Changes lie in the light chain CDRs alone.
VH: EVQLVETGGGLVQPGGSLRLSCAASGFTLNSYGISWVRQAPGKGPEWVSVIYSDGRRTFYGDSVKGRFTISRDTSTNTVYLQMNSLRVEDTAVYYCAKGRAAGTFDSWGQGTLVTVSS
VL: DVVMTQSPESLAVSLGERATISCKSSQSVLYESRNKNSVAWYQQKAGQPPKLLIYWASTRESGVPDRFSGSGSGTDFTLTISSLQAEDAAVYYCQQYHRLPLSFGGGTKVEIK

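Library AAYL50 holds single substitutions and randomly drawn double and triple substitutions in the CDRs. Affinity was read by AlphaSeq, a pooled yeast mating assay with surface-displayed partners. Binding brings cells together so that they mate, and sequencing counts the barcode pairs among the diploids. Each replicate has its own calibration line, from reference interactions of the BCL2 family. Each pool was mated in three replicate cultures.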

The parent's light chain CDRs are KSSQSVLYESRNKNSVA, WASTRES, QQYHRLPLS; each variant's own CDRs replace them letter for letter. Affinities are written as log10 Kd with Kd in nM; a lower number is a better binder. A mean of the replicates is given; it leaves out those without a signal. Where no diploid with the target was found in any replicate, the entry reads "nd": below detection, most likely a poor binder, though not proof of it.

For KSSQSVLYESRNKKSVA / WASTRES / QQYHCLRLS, the assay gave 2.56 (2 of 3 replicates; controls 1 of 9).
For KSSRSVLYESRNKNSVA / WASTRCS / QQYHRLPLS, the assay gave 4.32 (1 of 3 replicates; controls 1 of 9).
For KSGQSVLYSSRHKNSVA / WASTRES / QQYHRLPLS, the assay gave 2.19 (3 of 3 replicates; controls 3 of 9).
For KSSQSVLYESRNKNSVA / AASTREV / QRYHRLPLS, the assay gave 2.02 (3 of 3 replicates; controls 1 of 9).
For KSSQSVLYESRNKNSVD / WASRRES / QQYHALPLS, the assay gave nd (0 of 3 replicates; controls 1 of 9).
For KSSQSVLYESRNANSRA / WASTRES / QQYHRLWLS, the assay gave nd (0 of 3 replicates; controls 2 of 9).
For KSSCSVLYESRNKYSVA / WADTRES / QQYHRLPLS, the assay gave 0.94 (3 of 3 replicates; controls 2 of 9).
For KSSQSVLYESRNKRSVA / SASTRES / QQYHRLFLS, the assay gave nd (0 of 3 replicates; controls 1 of 9).
For KSSQSALWESRNKNSVA / WASTRES / IQYHRLPLS, the assay gave 3.70 (1 of 3 replicates; controls 1 of 9).
For KSSQSVLYESCNKNSVA / TASTRES / QQYHYLPLS, the assay gave 1.98 (3 of 3 replicates; controls 0 of 9).
For KSSQSVLYYSRRKNSVA / WASTRES / QHYHRLPLS, the assay gave nd (0 of 3 replicates; controls 0 of 9).
For KMSQGVLYESRNHNSVA / WASTRES / QQYHRLPLS, the assay gave 0.00 (3 of 3 replicates; controls 5 of 9).
For KFSQSVLYESRNKNSVA / HASFRES / QQYHRLPLS, the assay gave 0.00 (3 of 3 replicates; controls 2 of 9).
For KSSQSVLGEARNKNSVA / WASTRCS / QQYHRLPLS, the assay gave 0.89 (3 of 3 replicates; controls 3 of 9).
For KSSESVLYESRAKNSVV / WASTRES / QQYHRLPLS, the assay gave 3.76 (1 of 3 replicates; controls 0 of 9).
For LSSQSVLYESRNKCSVA / WASTRLS / QQYHRLPLS, the assay gave 3.59 (3 of 3 replicates; controls 0 of 9).
For KSSQSVWYESRNKNSVA / WLSTRET / QQYHRLPLS, the assay gave 2.07 (3 of 3 replicates; controls 1 of 9).
For KSSQSALYESRNKNSVN / HASTRES / QQYHRLPLS, the assay gave 4.37 (2 of 3 replicates; controls 2 of 9).
For KSSWSQLYESRNKNSVA / WASTRES / QQYHRLPCS, the assay gave nd (0 of 3 replicates; controls 0 of 9).
For KSSQSVLYESRNKNSVA / WASTRWS / QHYHRLPLS, the assay gave 1.37 (3 of 3 replicates; controls 2 of 9).
For KWSQSVLYNSRNKNSVA / WASTRES / QQYHRLPLD, the assay gave 2.37 (3 of 3 replicates; controls 1 of 9).
For KSSQSVLYSSRNKNDVA / WASTRES / QGYHRLPLS, the assay gave 3.62 (3 of 3 replicates; controls 2 of 9).
For KISQSVLYESMNKNSVA / WASTRES / QQYHRLPTS, the assay gave 1.98 (3 of 3 replicates; controls 4 of 9).

The remaining entries, values ahead:

nd (0 of 3 replicates; controls 0 of 9) for KSSQSVLYESRNKNSVA / WAWFRES / QQYHRLPLS.
nd (0 of 3 replicates; controls 1 of 9) for KSSTSVLYESRSKNSNA / WASTRES / QQYHRLPLS.
nd (0 of 3 replicates; controls 0 of 9) for KSSQSVLYEARNKNSPA / WADTRES / QQYHRLPLS.
0.95 (3 of 3 replicates; controls 1 of 9) for KSSQSVLYESRNCNSVA / QASTRES / QQIHRLPLS.
5.06 (1 of 3 replicates; controls 0 of 9) for KSSQSVLYESRHKNSVA / WASMRES / QQYHRLPRS.
2.82 (1 of 3 replicates; controls 0 of 9) for KSSQSVLYESRNKNSVC / WASEFES / QQYHRLPLS.
1.48 (3 of 3 replicates; controls 0 of 9) for KSSQSVLSESRNINSVA / WASTRES / QQYYRLPLS.
4.48 (2 of 3 replicates; controls 5 of 9) for KSCQSVLYESRNKNSVA / WASNRES / QQYHRLPLS.
1.70 (3 of 3 replicates; controls 0 of 9) for KSSQSWLSESRNKNSVA / WASTRES / QQYHWLPLS.
4.23 (1 of 3 replicates; controls 1 of 9) for KSSQSVRYISRNKNQVA / WASTRES / QQYHRLPLS.
4.57 (1 of 3 replicates; controls 3 of 9) for KSSQSVLYESGNKNSAA / WASTRES / QQYHRLNLS.
4.77 (2 of 3 replicates; controls 4 of 9) for KSSQSILYEYRNKNSVA / WASTRES / QQYHRKPLS.
1.43 (3 of 3 replicates; controls 1 of 9) for QNSQSVLYESRNKNSVA / WASTRES / QDYHRLPLS.
nd (0 of 3 replicates; controls 0 of 9) for KSWQSVLYASRNKNSVA / WASTRES / QQYHRLPYS.
4.59 (1 of 3 replicates; controls 1 of 9) for KSPQSVLYESRNKNSVA / WASRTES / QQYHRLPLS.
3.78 (2 of 3 replicates; controls 7 of 9) for KASQSVLYESRNKNSVA / PASTRES / QGYHRLPLS.
5.48 (3 of 3 replicates; controls 1 of 9) for KSSQSVVYESRNKNSGA / WASQRES / QQYHRLPLS.
nd (0 of 3 replicates; controls 2 of 9) for KSSQSVLYESRNKNSVA / EASTREV / QQHHRLPLS.
nd (0 of 3 replicates; controls 0 of 9) for KSSQSVLYSSRNFNSVA / WASTREI / QQYHRLPLS.
0.45 (3 of 3 replicates; controls 0 of 9) for KSSQSLLTETRNKNSVA / WASTRES / QQYHRLPLS.
nd (0 of 3 replicates; controls 0 of 9) for KSSQSVLYRSRNKCSVA / WASTRES / QQYHRLTLS.
3.86 (1 of 3 replicates; controls 7 of 9) for RSSQSVLYESGNKNSVA / WASTYES / QQYHRLPLS.
nd (0 of 3 replicates; controls 1 of 9) for FSSQSVLNESRNKNSVA / WASTRYS / QQYHRLPLS.

5 of these entries, quoted again:

{"CDR-L1": "KSSQSVWYESRNKNSVA", "CDR-L2": "WLSTRET", "CDR-L3": "QQYHRLPLS", "mean log10 Kd (nM)": "2.07", "replicates with signal": "3/3", "empty controls": "1/9"}
{"CDR-L1": "KSSQSVLYEARNKNSPA", "CDR-L2": "WADTRES", "CDR-L3": "QQYHRLPLS", "mean log10 Kd (nM)": "nd", "replicates with signal": "0/3", "empty controls": "0/9"}
{"CDR-L1": "LSSQSVLYESRNKCSVA", "CDR-L2": "WASTRLS", "CDR-L3": "QQYHRLPLS", "mean log10 Kd (nM)": "3.59", "replicates with signal": "3/3", "empty controls": "0/9"}
{"CDR-L1": "KWSQSVLYNSRNKNSVA", "CDR-L2": "WASTRES", "CDR-L3": "QQYHRLPLD", "mean log10 Kd (nM)": "2.37", "replicates with signal": "3/3", "empty controls": "1/9"}
{"CDR-L1": "KSSQSVLYSSRNFNSVA", "CDR-L2": "WASTREI", "CDR-L3": "QQYHRLPLS", "mean log10 Kd (nM)": "nd", "replicates with signal": "0/3", "empty controls": "0/9"}

Empty control strains, which show no peptide, gave a signal in 18% of pairings with library AAYL50; the median was 4.19 and 95% of these signals were weaker than 2.99. No background was subtracted. For each scFv, signals with the empty controls are counted beside the result. Parent in this assay: reference entry 0.65, copy in this library 1.68.

Values reported by Engelhart et al. 2022, doi:10.1038/s41597-022-01779-4 (FLAb copy).